## AlphaSeq binding of Ab-14 light chain variants to a spike HR2 peptide

Data: MIT Lincoln Laboratory AlphaSeq set, Engelhart et al. 2022, doi:10.1038/s41597-022-01779-4, as distributed in FLAb.

Target peptide (SARS-CoV-2 spike, HR2 region): PDVDLGDISGINAS

Each scFv is VH, a (GGGGS)3 linker, VL, as in the parent Ab-14, and differs from it in the CDRs of the light chain only.
VH: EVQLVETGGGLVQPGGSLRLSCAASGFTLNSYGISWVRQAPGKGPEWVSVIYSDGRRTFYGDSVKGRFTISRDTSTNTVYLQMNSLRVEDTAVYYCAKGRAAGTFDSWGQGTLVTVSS
VL: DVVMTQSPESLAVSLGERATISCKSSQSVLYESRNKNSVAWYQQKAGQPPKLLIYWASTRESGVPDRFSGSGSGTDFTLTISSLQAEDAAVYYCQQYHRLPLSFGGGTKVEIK

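Library AAYL50 holds single substitutions and randomly drawn double and triple substitutions in the CDRs. The scFvs were displayed on barcoded MATa yeast, the peptide on MATalpha yeast. Mating (16 h, 30 °C) was followed by selection of diploids and sequencing of their barcodes. Each replicate has its own calibration line, from reference interactions of the BCL2 family. The assay was run in three technical replicates.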

Each variant is given by its three light chain CDRs, as the data file delimits them; those of the parent are KSSQSVLYESRNKNSVA, WASTRES, QQYHRLPLS.
Every variant below is changed at L102 of the VL (sequential numbering).
Each Kd is an estimate from the mating assay, the geometric mean of the replicates in which the pair was seen; lower is stronger.
An entry "no signal" has no value in the source: the pair was not observed among the diploids in any replicate. This suggests poor binding but is not conclusive.
Nonspecific signal, from three strains lacking the peptide, appeared in 18% of pairings of library AAYL50, centred on 15 µM (5% of these signals below 970 nM); values are not corrected for it.

Variant YSSQSVLYESRNKNSVA / WASTRES / QQYFRLPRS showed no signal (0 of 3 replicates). For KSSQSVDYESRNKNSVA / WASTRES / QQYHRLPCW, the assay gave 7.2 nM (3 of 3 replicates). For KVSQSVLYESRNKNSVA / WASTRES / QQYHRLPIS, the assay gave 1.9 nM (3 of 3 replicates). For KSSQSMLYESRNKNSVY / WASTRES / QQYHRLPAS, the assay gave 18 µM (1 of 3 replicates). Variant KSSQSVLYESRNKNSVA / WASTRLS / QQYHRDPES gave 46 µM (3 of 3 replicates). Variant KSSQSVLYESRNKNSVA / SASTRES / YQYHRLPMS showed 17 nM (3 of 3 replicates). For KSSQSVLYNSRNKNSVA / WASTRES / QQYHRLPSG, the assay gave 240 µM (1 of 3 replicates). With KSSQSVLYESRNKNSVA / WASTREM / QQYHRLPIR the result was 61 nM (3 of 3 replicates).

Variant PSSQSVLYESRNKNSVA / WHSTRES / QQYHRLPIS gave 2.9 µM (1 of 3 replicates). For KSSQSVLYESRNKNSVA / WASRKES / QQYHRLPSS, the assay gave 830 nM (3 of 3 replicates). Variant KSSQSVLYESRNHNSVA / WASTRES / QQYQRLPFS gave 8.0 nM (3 of 3 replicates). Variant KSSQSVLYESRNKNSVA / WASTEES / QQYHRNPFS gave 69 µM (3 of 3 replicates). For KSSQSVYYESRNDNSVA / WASTRES / QQYHRLPKS, the assay gave 1.1 µM (1 of 3 replicates). Variant KSSQSVLYESRNKTSVA / WASTRES / QQYSRLPAS showed no signal (0 of 3 replicates). Variant KSSQSVMYESRNKNSVA / WARTRES / QQYHRLPTS gave 98 nM (3 of 3 replicates). With KSSQSVLYESKNKNSVA / WASTAES / QQYHRLPES the result was 1.0 µM (3 of 3 replicates).

For KSSQSVLYTSRSKNSVA / WASTRES / QQYHRLPRS, the assay gave no signal (0 of 3 replicates). With KSSQSVLYESRNKRSFA / WASTRES / QQYHRLPPS the result was no signal (0 of 3 replicates). Variant KSSQSVLYESRNKISVP / WASTRES / QQYHRLPSS gave 610 µM (1 of 3 replicates). With KSSQSVLYESRNKNSVA / WASTRES / QQYMRLPSS the result was no signal (0 of 3 replicates). With KSSQSVLYESRNKNSVA / WASTRES / QPYHRLPCN the result was no signal (0 of 3 replicates). For KSSQSVLYESRNKNSVA / WASTRES / QQYHNLKES, the assay gave 9.6 nM (3 of 3 replicates). With KSSQSVLYESVNKNSVA / WASTRES / QQYHRLLCS the result was no signal (0 of 3 replicates). Variant KSSDSVLYESRNKNSVA / WASLRES / QQYHRLPVS gave 28 µM (1 of 3 replicates).

Variant KCSQSVLYESRNSNSVA / WASTRES / QQYHRLPQS gave 4.6 µM (2 of 3 replicates). With KSSQSVLYESRTKNSVA / WASTRES / QQYHRSPFS the result was no signal (0 of 3 replicates). For KSSQSVLYESRNKNSVR / WNSTRES / QQYHRLPQS, the assay gave 18 µM (2 of 3 replicates). With KSKQSVLYESTNKNSVA / WASTRES / QQYHRLPSS the result was 4.0 µM (1 of 3 replicates). Variant KSSQSVLYESRNKNSVA / WASWRES / QQYVRLPVS gave no signal (0 of 3 replicates). Variant FSSQSVLYESNNKNSVA / WASTRES / QQYHRLPAS showed 14 nM (3 of 3 replicates). Variant KSSQSVLYESREKNSVA / WAPTRES / QQYHRLPHS gave 7.2 µM (3 of 3 replicates). With KSSQSWLYESRNKNSVA / WASTRES / QCYHRLPFS the result was 1.5 nM (3 of 3 replicates).

Variant KSSQSVLYESRRKNSVA / WASTRES / QSYHRLPMS gave 1.5 µM (2 of 3 replicates). With KSSQSVLYESHNKNSVA / WASTRKS / QQYHRLPCS the result was no signal (0 of 3 replicates).

Picked from the list: the 4 lowest averages where every replicate gave a value.

CDR-L1	CDR-L2	CDR-L3	apparent Kd	detected
KSSQSWLYESRNKNSVA	WASTRES	QCYHRLPFS	1.5 nM	3/3
KVSQSVLYESRNKNSVA	WASTRES	QQYHRLPIS	1.9 nM	3/3
KSSQSVDYESRNKNSVA	WASTRES	QQYHRLPCW	7.2 nM	3/3
KSSQSVLYESRNHNSVA	WASTRES	QQYQRLPFS	8.0 nM	3/3